Data reported in patent US11129840B2, “Methods for identifying novel dosing regimens” (Zavante Therapeutics, Inc., priority 2017, dated 2021).

Test system: K. pneumoniae (KPC-producer) isolate
Experiment: Time-kill kinetic analysis
Type: cell-based, Klebsiella pneumoniae
Conditions: ¼ and 1×MIC
Experimental: TKK were sampled for colony counts at T0, T2, T4, T8 and T24 hours (h). Two Klebsiella pneumoniae isolates (one KPC and one ESBL), two Pseudomonas aeruginosa isolates (non-MDR), and one Acinetobacter baumannii isolate (MDR) were tested.

## Piperacillin-tazobactam [PTZ]
  inhibitory activity: little inhibitory activity
